The assay addresses Human eIF4E (28–217) (Homo sapiens, UniProt P06730). The assay can be described thus: fluorescence titration. The assay is classed as binding.

Sequences of proteins named here, by UniProt entry; tags and fusion partners are left off. Residues count along the entry.
UniProt P06730, 28-217: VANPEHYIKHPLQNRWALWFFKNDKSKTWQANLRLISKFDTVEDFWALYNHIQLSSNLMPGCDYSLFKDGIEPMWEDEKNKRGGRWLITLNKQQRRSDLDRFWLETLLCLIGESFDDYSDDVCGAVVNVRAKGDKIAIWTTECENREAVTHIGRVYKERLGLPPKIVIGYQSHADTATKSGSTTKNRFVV

Molecules are shown by their SMILES.

What is called Kd is the free concentration of one partner at which half of the binding sites on the other are occupied at equilibrium, for simple one-to-one binding. Higher therefore signals a looser complex.

On to `C[n+]1cn([C@@H]2O[C@H](COP(=O)(O)OP(=O)(O)OP(=O)(O)OC[C@H]3O[C@@H](n4cnc5c(=O)[nH]c(N)nc54)[C@H](O)[C@@H]3O)[C@@H](O)[C@H]2O)c2nc(N)[nH]c(=O)c21` [m^7GpppG], for which the Kd was determined as 335 ± 36 nM.

The record behind these values is paper PMC3203607 (Nucleic Acids Research, 2011).
